Values of other authors, collected in PMC6628571.

Molecular target: Aβ(12–28) 12-28 (Homo sapiens) (UniProt P05067)
Assay: NMR

Kd: 2000 nM
Substance: Transthyretin (from UniProt P02766)
